This passage reports IC50 results from patent publication US9732094B2, “Arylquinazolines” (Merck Patent GmbH, priority 2013, dated 2017).

Protein sequences, listed by entry. Tags and fused reporters are not part of them.
UniProt P78527, whole entry: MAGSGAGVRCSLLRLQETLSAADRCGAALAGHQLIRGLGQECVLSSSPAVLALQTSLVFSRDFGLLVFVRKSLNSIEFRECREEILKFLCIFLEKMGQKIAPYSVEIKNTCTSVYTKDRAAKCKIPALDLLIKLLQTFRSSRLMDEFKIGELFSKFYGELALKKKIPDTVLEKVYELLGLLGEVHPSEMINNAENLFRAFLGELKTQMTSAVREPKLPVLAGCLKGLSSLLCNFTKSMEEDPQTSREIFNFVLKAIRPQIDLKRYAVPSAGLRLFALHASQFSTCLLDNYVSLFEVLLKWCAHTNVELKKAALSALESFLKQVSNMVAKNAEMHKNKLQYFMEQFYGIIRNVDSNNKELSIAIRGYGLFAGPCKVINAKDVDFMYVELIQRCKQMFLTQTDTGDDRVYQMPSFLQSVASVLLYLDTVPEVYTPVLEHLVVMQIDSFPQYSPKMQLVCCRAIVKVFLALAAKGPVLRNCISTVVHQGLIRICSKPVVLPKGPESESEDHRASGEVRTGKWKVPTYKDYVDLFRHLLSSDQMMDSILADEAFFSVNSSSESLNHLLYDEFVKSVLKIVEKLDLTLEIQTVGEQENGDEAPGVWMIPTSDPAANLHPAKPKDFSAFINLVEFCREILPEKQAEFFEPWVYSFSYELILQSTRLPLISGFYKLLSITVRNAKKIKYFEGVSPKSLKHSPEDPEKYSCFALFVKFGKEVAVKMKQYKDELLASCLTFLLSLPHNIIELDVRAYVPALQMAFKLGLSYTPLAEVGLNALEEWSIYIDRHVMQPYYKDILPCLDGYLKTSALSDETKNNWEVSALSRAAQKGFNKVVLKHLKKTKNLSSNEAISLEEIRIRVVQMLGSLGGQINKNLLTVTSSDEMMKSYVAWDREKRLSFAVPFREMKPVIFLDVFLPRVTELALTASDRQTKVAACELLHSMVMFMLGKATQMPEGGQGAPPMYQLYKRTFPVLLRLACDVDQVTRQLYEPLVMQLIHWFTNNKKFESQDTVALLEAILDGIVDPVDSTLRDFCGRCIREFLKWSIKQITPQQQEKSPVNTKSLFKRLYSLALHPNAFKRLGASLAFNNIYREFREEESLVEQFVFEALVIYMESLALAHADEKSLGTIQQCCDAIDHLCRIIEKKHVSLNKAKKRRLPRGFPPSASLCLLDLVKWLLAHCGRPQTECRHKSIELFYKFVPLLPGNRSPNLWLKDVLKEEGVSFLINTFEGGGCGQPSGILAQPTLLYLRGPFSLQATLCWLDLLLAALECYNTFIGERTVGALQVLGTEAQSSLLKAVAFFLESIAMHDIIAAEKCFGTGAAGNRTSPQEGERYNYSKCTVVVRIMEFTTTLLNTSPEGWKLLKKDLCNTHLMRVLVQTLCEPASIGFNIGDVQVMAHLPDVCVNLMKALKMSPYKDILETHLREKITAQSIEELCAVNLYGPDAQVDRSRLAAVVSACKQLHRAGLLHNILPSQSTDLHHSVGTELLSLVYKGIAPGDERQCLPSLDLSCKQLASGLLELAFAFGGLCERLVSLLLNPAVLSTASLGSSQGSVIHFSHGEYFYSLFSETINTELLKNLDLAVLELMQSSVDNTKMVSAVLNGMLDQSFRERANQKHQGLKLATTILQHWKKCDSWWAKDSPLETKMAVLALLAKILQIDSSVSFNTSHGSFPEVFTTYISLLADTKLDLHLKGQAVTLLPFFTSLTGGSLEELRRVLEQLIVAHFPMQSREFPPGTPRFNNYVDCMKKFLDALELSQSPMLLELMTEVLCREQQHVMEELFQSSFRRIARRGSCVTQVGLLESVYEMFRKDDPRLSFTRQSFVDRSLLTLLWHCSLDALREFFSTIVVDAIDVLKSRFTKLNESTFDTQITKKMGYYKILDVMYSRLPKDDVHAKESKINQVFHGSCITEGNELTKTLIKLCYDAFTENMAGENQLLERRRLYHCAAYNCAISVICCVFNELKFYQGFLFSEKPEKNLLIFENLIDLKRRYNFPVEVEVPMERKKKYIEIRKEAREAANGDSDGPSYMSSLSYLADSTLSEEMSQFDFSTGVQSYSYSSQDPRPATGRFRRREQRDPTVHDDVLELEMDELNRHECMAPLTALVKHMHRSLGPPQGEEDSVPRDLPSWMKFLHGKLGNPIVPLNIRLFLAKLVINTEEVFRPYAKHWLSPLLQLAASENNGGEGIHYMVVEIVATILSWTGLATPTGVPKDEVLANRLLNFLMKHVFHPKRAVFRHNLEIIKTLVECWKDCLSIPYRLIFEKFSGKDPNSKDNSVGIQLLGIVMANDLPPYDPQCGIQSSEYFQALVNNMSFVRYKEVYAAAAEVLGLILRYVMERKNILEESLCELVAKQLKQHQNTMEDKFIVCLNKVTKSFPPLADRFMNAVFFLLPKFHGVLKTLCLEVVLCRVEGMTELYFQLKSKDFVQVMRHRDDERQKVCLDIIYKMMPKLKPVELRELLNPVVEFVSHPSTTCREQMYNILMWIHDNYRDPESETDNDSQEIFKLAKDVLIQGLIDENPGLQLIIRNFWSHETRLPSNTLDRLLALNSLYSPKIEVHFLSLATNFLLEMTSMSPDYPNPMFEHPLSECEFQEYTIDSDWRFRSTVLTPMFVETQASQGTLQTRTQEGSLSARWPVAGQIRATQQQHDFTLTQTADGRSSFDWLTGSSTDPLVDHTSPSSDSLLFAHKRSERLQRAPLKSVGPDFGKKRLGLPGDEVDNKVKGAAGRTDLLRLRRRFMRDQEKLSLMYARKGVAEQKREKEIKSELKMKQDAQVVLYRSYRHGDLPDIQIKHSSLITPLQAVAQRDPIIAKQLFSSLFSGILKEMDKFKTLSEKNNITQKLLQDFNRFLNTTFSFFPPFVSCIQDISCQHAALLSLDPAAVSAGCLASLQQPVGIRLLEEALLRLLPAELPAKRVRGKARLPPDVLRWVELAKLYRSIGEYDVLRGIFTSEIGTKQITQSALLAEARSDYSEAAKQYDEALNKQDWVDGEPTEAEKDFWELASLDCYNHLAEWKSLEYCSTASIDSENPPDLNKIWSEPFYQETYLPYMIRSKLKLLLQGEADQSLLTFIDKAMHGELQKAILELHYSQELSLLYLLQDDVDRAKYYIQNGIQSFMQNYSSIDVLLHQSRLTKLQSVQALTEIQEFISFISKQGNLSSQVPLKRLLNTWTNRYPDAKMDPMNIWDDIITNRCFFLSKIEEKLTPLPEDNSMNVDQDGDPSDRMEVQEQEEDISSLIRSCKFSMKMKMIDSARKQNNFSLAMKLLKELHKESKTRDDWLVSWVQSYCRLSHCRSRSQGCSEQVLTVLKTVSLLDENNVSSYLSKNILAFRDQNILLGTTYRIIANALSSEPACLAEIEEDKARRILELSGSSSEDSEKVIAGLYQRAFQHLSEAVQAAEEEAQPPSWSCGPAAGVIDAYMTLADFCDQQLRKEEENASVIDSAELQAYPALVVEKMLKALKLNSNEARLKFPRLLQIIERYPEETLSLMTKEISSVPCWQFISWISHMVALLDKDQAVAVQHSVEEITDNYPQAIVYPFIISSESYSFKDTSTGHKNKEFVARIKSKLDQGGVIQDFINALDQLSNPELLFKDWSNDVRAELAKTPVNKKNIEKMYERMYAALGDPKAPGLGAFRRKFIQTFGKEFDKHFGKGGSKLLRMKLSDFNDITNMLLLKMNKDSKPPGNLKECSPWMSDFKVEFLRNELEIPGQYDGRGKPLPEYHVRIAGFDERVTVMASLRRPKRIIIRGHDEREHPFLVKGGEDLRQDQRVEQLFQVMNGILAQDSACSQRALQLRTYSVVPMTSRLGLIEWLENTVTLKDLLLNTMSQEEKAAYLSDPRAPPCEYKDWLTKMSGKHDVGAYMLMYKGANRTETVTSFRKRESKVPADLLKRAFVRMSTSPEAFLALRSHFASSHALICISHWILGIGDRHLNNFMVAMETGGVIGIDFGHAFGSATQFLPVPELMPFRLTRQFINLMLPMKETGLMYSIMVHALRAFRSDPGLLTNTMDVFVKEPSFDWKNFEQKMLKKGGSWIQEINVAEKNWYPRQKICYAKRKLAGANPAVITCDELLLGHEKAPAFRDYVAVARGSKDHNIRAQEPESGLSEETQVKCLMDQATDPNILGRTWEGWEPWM

As usually defined, the IC50 is the point on the concentration scale where inhibition reaches its midpoint.

In assay [1] the target is DNA-PK phosphorylation at serine 2056 (Homo sapiens (Human), UniProt P78527). The assay is described as follows: DNA-PK phosphorylation at serine 2056 (cellular), bleomycin-treated HCT116 cells, ELISA. It is filed as cell-based. The note with it: 10 μM bleomycin, six hours, read-out: IC50 pDNA-PK. Here is the method: HCT116 cells were cultivated at 37° C. and 10% CO2 in MEM alpha medium with 10% of foetal calf serum and 2 mM glutamine. The cells were detached from the base of the culture vessels with the aid of trypsin/EDTA, centrifuged off in centrifuge tubes, taken up in fresh medium, and the cell density was determined. 100,000 cells were sown in 1 ml of culture medium per cavity of a 24-well cell culture plate and cultivated overnight. Next day, 10 μM bleomycin (DNA intercalator and inductor of DNA double-strand breaks) and test substances in fresh culture medium were added to the cells, and these were cultivated for a further six hours. […] The 96-well ELISA plates were subsequently treated with a detection antibody (Abcam ab79444: total DNA-PK) and a streptavidin-HRP conjugate. The development of the enzymatic reaction was carried out with the aid of a chemiluminescent reagent, the chemiluminescence was measured with the aid of a Mithras LB940. The signals with the phospho-DNA-PK-specific antibody were standardised to the signal with the antibody against the total protein DNA-PKc. […] The DMSO control was used as blank.
(In general: In an ELISA, binding on a coated surface is turned into a signal by an enzyme label.)

Another assay has as its target DNA-PK (Homo sapiens (Human), UniProt P78527). Kind of assay: DNA-PK assay (biochemical), flashplate 33P-ATP kinase assay. The note with it: enzymatic; 5 μM ATP. Here is the method: A) DNA-PK Assay (Biochemical)
The kinase assay was carried out in streptavidin-coated […] microtitre flashplates. […] The reaction was stopped using 50 μl/well of 200 mM EDTA. After incubation for a further 30 min at room temperature, the liquid was removed. Each well was washed three times with 100 μl of 0.9% saline solution. A nonspecific reaction (blank value) was determined using 10 μM of an innate kinase inhibitor. The radioactivity measurement was carried out using a TopCount. IC50 values were calculated in RS1.

As for `COc1ccc(C(O)c2cc(-c3ncnc4cc(N5CCOCC5)ccc34)c(F)cc2F)nn1` (single isomer, unassigned) [Example 129, [2,4-Difluoro-5-(7-morpholin-4-yl-quinazolin-4-yl)-phenyl]-(6-methoxy-pyridazin-3-yl)-methanol], the IC50 in assay [1] lay within 5000 to 10000 nM; against DNA-PK, 7 to 30 nM.

Consider `COc1ccc(C(O)c2cc(-c3ncnc4cc(N5CCOCC5)ccc34)c(F)cc2F)nn1` (single isomer, unassigned) [Example 130, [2,4-Difluoro-5-(7-morpholin-4-yl-quinazolin-4-yl)-phenyl]-(6-methoxy-pyridazin-3-yl)-methanol], for which the values for the IC50 (in assay [1]; at DNA-PK) were below 500 nM and below 3 nM, respectively.

Consider `COc1ccc(C(O)c2cc(-c3ncnc4cc(N5CCOCC5)ccc34)c(F)cc2F)nn1` (stereo not drawn) [Example 131, [2,4-Difluoro-5-(7-morpholin-4-yl-quinazolin-4-yl)-phenyl]-(6-methoxy-pyridazin-3-yl)-methanol], for which the IC50 in assay [1] was 500 to 5000 nM; on DNA-PK, 3 to 7 nM.
